Measured values taken from PubChem BioAssay AID720533 (National Center for Advancing Translational Sciences (NCATS), 2013).
This is a selection; strong and weak results do not stand in their true shares. Some tests of the compounds listed are not included; inactive here does not mean inactive elsewhere. Results filed as inconclusive are left out. Calls of active or inactive are those of the source. Calls follow the shape of the full dose curve; tested in HEK293 cells.

Test: qHTS for Inhibitors of binding or entry into cells for Lassa Virus
Settings: Lassa virus pseudotyped entry inhibition, cell-based qHTS; at 49.2 µM (top of the series)
% is scaled to controls: 0 for no effect and ±100 for the full control effect.

SMILES	activity change, negative = inhibition
CN1CCCC(OC(=O)C(O)(c2ccccc2)c2ccccc2)C1 (stereo unspecified)	inactive: -6.11%
